Experimental data reported in US9451765B2, “Biological decontamination gel and method for decontaminating surfaces by using this gel” (dated 2016).

Legend:
[1] = test system: spores of Bacillus thuringiensis; settings: nitric acid (0.5M HNO3 tested in Example 1)
[2] = test system: spores of Bacillus thuringiensis; settings: 0.5M, 1M, 5M; contact times 1 to 5 hours; FIG. 5

Molecule: O=[N+]([O-])O
- destruction, inactivation of spores [1]: ensured the destruction, the inactivation of spores

Molecule: potassium hydroxide
- rates for inhibiting spores on increase in the concentration of biocidal agent [2]: considerably increasing the rates for inhibiting biological species

Molecule: sodium hydroxide
- rates for inhibiting spores on increase in the concentration of biocidal agent [2]: considerably increasing the rates for inhibiting biological species
